Where “and” joins values, the source holds several entries; their conditions need not be identical. Equal values may be shown once. The entries are a selection whose mix differs from that of the whole data set. Some structures show a salt or complex split into parts, the way the source records it. Calls of active or inactive are those of the source. No stated cut-off is given here; in the data, active means activation above about 40%; inactive means the rest, inconclusive results apart.
Each compound was assayed on Aedes aegypti neuropeptide Y-like receptor 7 (NPYLR7) (assay: agonists of mosquito NPYLR7 receptor, primary screen, cell-based, Aedes aegypti, calcium fluorescence, mosquito biting behavior (AID 1259423;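 further: 0% = vehicle and 100% = reference agonist at the receptor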)). Conditions: HEK293T NPYLR7/Galpha15, GCaMP6s calcium fluorescence; at 10 µM; active compounds read high.

Structure (SMILES)	activation
CP(=O)(O)OC(c1ccccc1)C(F)(F)C(F)(F)F (stereo not given)	inactive: 2.39%
Cc1cc(C)cc(OP(C)(=O)Nc2cc(Cl)ccc2C)c1 (stereo not given)	inactive: 7.88%
CP(N)(=O)Oc1ccccc1F (stereo not given)	inactive: -2.79%
CN1CC(=O)N(C)P1(C)=S (stereo not given)	inactive: 1.31%
O=[N+]([O-])C1([N+](=O)[O-])COCOC1	inactive: 36%
CN([N+](=O)[O-])C(Br)([N+](=O)[O-])[N+](=O)[O-]	inactive: -11.7%
Cc1ccc(NP(C)(=O)Oc2ccc(Cl)cc2)cc1 (stereo not given)	inactive: -5.9%
Cn1cc([N+](=O)[O-])nc1[N+](=O)[O-]	inactive: -2.03%
CP(=O)(Nc1cccc(F)c1)Oc1ccc(Cl)cc1 (stereo not given)	inactive: 1.42%
CP(=O)(Nc1ccc(Cl)cc1Cl)Oc1ccccc1 (stereo not given)	inactive: 5.1%
CP(=O)(Nc1ccc(F)cc1)Oc1ccc(Cl)cc1 (stereo not given)	inactive: 2.87%
OCCSCCO	inactive: -13.1%
COc1ccc(OP(C)(=O)Nc2ccc(Br)cc2)cc1 (stereo not given)	inactive: 1.42%
COc1cccc(C(OP(C)(=O)O)C(F)(F)F)c1 (stereo not given)	inactive: 6.09%
CP(=O)(Oc1ccc(F)cc1)OC(c1ccccc1)C(F)(F)F (stereo not given)	inactive: 1.75%
CC(C)(C)c1ccc(OP(C)(=O)O)cc1	inactive: 5.91%
CCCCOc1ccc(NP(C)(=O)Oc2ccc(CC)cc2)cc1 (stereo not given)	inactive: 2.72%
CP(=O)(O)OC(c1ccccc1)C(F)(F)F (stereo not given)	inactive: 7.43%
Nc1nonc1N=Nc1nonc1N	inactive: 2.03%
CP(=O)(Nc1ccccc1Br)Oc1ccccc1 (stereo not given)	inactive: 6.9% and inactive: -0.332%

Structure (SMILES)	activation
CP(=O)(O)OC(c1cccc(Cl)c1)C(F)(F)F (stereo not given)	inactive: -3.72%
CP(=O)(Oc1ccccc1)OC(c1ccccc1)C(F)(F)F (stereo not given)	inactive: 6.98%
COC(=O)NC(c1ccccc1)P(=O)(Cl)Cl (stereo not given)	inactive: 4.05%
CN(C)CCS	inactive: -13.3%
CCOP(C)(=S)SCN(CC(=O)O)C(=O)OC (stereo not given)	inactive: 3.26%
Cc1cccc(C)c1OP(C)(N)=O (stereo not given)	inactive: 7.88%
CP(=O)(Nc1ccc(Br)cc1)Oc1ccccc1 (stereo not given)	inactive: 168%
CC(C)(C)c1ccc(OP(C)(N)=O)cc1 (stereo not given)	inactive: 4.39%
COc1ccc(OP(C)(=O)Nc2cccc(F)c2)cc1 (stereo not given)	inactive: 2.04%
Cc1cc(C)cc(OP(C)(N)=O)c1 (stereo not given)	inactive: 6.36%
CCN(C1=NCCCS1)P(O)(=S)CC (stereo not given)	inactive: -6.42%
CP(=O)(O)OC(c1cccc(C(F)(F)F)c1)C(F)(F)F (stereo not given)	inactive: -1.47%
Cc1ccc(NP(C)(=O)Oc2ccc(C(C)(C)C)cc2)cc1 (stereo not given)	inactive: 3.04%
Cc1ccc(NP(C)(=O)Oc2ccc(C(C)C)cc2)cc1C (stereo not given)	inactive: 2.42%
CC(=O)N(CCN(C(C)=O)[N+](=O)[O-])[N+](=O)[O-]	inactive: -8.83%
C/C1=C2N=C(/C=C3N=C(/C(C)=C4\[N-]C(C)(C5N=C1C(C)(CCC(=O)NCC(C)OP(=O)(O)OC1C(CO)OC(n6cnc7cc(C)c(C)cc76)C1O)C5CC(N)=O)C(C)(CC(N)=O)C4CCC(N)=O)C(C)(CC(N)=O)C\3CCC(N)=O)C(C)(C)C/2CCC(N)=O.[C-]#N.[Co+3] (stereo not given)	inactive: -5%
CP(=O)(Nc1ccc(Br)cc1)Oc1ccc(Cl)cc1 (stereo not given)	inactive: 6.36%
Cc1ccc(Cl)cc1NP(C)(=O)Oc1ccccc1 (stereo not given)	inactive: -6.73%
COc1ccc(OP(C)(=O)Nc2ccc(Cl)cc2)cc1 (stereo not given)	inactive: 4.57%
Nc1cc([N+](=O)[O-])cc([N+](=O)[O-])c1O	inactive: -2.27%
